## Yeast mating assay B: variants of the scFv Ab-14

From the AlphaSeq antibody data of Li et al. 2023 (doi:10.1038/s41467-023-39022-2), copy in the FLAb collection.

Target peptide (SARS-CoV-2 spike, HR2 region): PDVDLGDISGINAS

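The starting antibody came from a phage panning campaign against this peptide. The variants were designed computationally from a first round of random CDR variants and then made and measured. Group labels follow the data file (Ctrl: baseline library sampled from a position-specific scoring matrix, with some repeated check sequences; Rand: our label for a block that the file lists under HC and that is probably the random mutants of the ten best first-round binders; GP: Gaussian process model; GPLM: also part of the Gaussian process libraries; HC: hill climbing; Gen: genetic algorithm; Gibbs: Gibbs sampling; a sequence that several methods proposed may carry one label only). In AlphaSeq, yeast of one mating type display the scFv and yeast of the other type display the target. Binding brings cells together so that they mate, and sequencing counts the barcode pairs among the diploids. The ratio of observed to expected reads was calibrated, replicate by replicate, on BCL2-family standards whose Kd was known from biolayer interferometry. Mating was done six times.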

Parent: Ab-14, a human scFv built as VH, a (GGGGS)3 linker, VL. Only the CDRs of the heavy chain vary.
VH: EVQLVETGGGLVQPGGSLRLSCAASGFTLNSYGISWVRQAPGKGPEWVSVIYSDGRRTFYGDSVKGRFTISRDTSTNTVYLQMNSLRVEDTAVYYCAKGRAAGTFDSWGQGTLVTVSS
VL: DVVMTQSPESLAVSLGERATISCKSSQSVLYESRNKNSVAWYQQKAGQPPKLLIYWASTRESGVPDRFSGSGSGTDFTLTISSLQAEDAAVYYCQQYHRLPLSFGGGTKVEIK

Changes read parent residue, position, new residue, counted from the first residue of the VH shown.
Variants here have at most six changes.
Numbers give log10(Kd / nM), so 0 is 1 nM and 3 is 1 µM. Smaller is tighter.
Replicates are averaged; those with no signal do not enter the mean.
Where no diploid with the target was found in any replicate, the entry reads "no signal": below detection, most likely a poor binder, though not proof of it.
Of ten entries with the parent sequence, four were seen in most replicates (averages 0.34 to 2.37), three in one and three in none, so single entries are noisy.

For T28D/S53A/F105N [GPLM_HC], the assay gave 0.57 (6 of 6 replicates). With T28S/G61D/A101E [GPLM_Gibbs] the result was -0.09 (6 of 6 replicates). Variant S53A/G61Q/A101E [Ctrl] gave -0.74 (6 of 6 replicates). Variant T28D/G61A/S63E/R100K [GP_Gen] gave -0.03 (6 of 6 replicates). Variant T28D/G61S/A101T [GPLM_Gen] gave -0.07 (6 of 6 replicates). With G26D/T28D/R100N [GP_Gibbs] the result was no signal (0 of 6 replicates). Variant T28Q/S31E/A101H/S107T [GP_Gen] gave 0.89 (5 of 6 replicates). Variant T28D/S31K/R100Q [GP_Gen] gave 0.09 (6 of 6 replicates). Variant T28S/S31W/A101Q [GPLM_Gen] gave 2.15 (4 of 6 replicates).

For G61S/R100L/A102V [GPLM_HC], the assay gave no signal (0 of 6 replicates). For G26R/G61I/A101E [GP_HC], the assay gave no signal (0 of 6 replicates). Variant S31E/G61T/V64S/A101F/G103H [Rand] showed no signal (0 of 6 replicates). With R100E/G103D [Ctrl] the result was no signal (0 of 6 replicates). Variant T28D/S31R/R100Q/A101T [GP_Gibbs] showed 0.39 (6 of 6 replicates). With T28W/S31E/A101E [GPLM_HC] the result was 0.82 (4 of 6 replicates). Variant S53A/R56K/R100Q/S107T [GP_Gibbs] gave 0.79 (5 of 6 replicates). With G26K/R56M/G61S/A101T [GP_Gibbs] the result was no signal (0 of 6 replicates). For T28N/G61S/R100K [Ctrl+GPLM_Gibbs], the assay gave 0.34 (6 of 12 replicates).

Variant G26M/T28S/G61K/R100Q/A101T [GP_Gibbs] showed 2.01 (2 of 6 replicates). For G26K/T28N/R100K/A101Q [GP_Gen], the assay gave no signal (0 of 6 replicates). Variant G61S/R100H/S107L [GP_HC] showed 0.68 (6 of 6 replicates). For T28V/S53A/R100T [GP_HC], the assay gave 0.11 (6 of 6 replicates). With T28D/A102T [Ctrl] the result was 1.56 (2 of 6 replicates). Variant G26H/T28D/G61A/A101T [GP_Gen] gave 0.59 (6 of 6 replicates). With T28W/G61S [Ctrl] the result was 1.52 (5 of 6 replicates). Variant T28D/S63R/A101N [GP_Gen] gave -0.59 (6 of 6 replicates). Variant T28D/S63Q/A101V [GP_Gen] gave 0.97 (6 of 6 replicates).

For F27K/T28S/G61V/S63D/A101T [GP_Gibbs], the assay gave no signal (0 of 6 replicates). Variant S31Q/S107A [Ctrl] gave 1.18 (5 of 6 replicates). Variant R56F/R100W [Ctrl] showed no signal (0 of 6 replicates). Variant T28N/S31E/A101H [GP_Gen] gave 0.76 (6 of 6 replicates). Variant L29I/S63A/D106K [Ctrl] gave no signal (0 of 6 replicates). For T28E/S31E/G61D/R100Q [GP_Gibbs], the assay gave 0.94 (6 of 6 replicates). Variant T28D/F59A/A101E [GPLM_Gibbs] gave 0.32 (6 of 6 replicates). Variant R100D/T104S/S107D [Ctrl] gave no signal (0 of 6 replicates).

Nonspecific signal, from three strains lacking the peptide, appeared in 1% of pairings of all heavy chain designs, centred on 2.08 (5% of these signals below 0.84); values are not corrected for it.
The range of this assay differs from that of the first round, and the authors advise against merging the two.
The authors' rule: three or more of the six replicates give a measured affinity, fewer mean a poor binder.
A sequence that the file lists under several names has all its replicates pooled.